Assay results as given in US20250114416A1, “ANTIVIRAL C[…] EXTRACT AND STEROID COMPOUND AS ACTIVE INGREDIENTS” (priority 2022, published 2025).

Assays:
Conditions in all cases: examples using ginseng (Table 1); mouse liver, oral twice a day for 2 weeks, 22.5 mg/kg extract and/or steroid; non-administered control = 1
[1] = system: Ifnb1 (interferon beta) mRNA
[2] = system: Mx1 (Mx dynamin like GTPase 1) mRNA
[3] = system: Mx2 (Mx dynamin like GTPase 2) mRNA

C[C@@H]1C[C@H]2[C@@H]3CCC4=CC(=O)C=C[C@]4(C)[C@@]3(F)[C@@H](O)C[C@]2(C)[C@@]1(O)C(=O)CO [Comparative Example 4, Dexamethasone]
Relative mRNA expression level Ifnb1 [1]: 0.7 ± 0.2
Relative mRNA expression level Mx1 [2]: 0.7 ± 0.2
Relative mRNA expression level Mx2 [3]: 0.8 ± 0.3

C[C@]12CCC(=O)C=C1CC[C@@H]1[C@@H]2[C@@H](O)C[C@@]2(C)[C@H]1CC[C@]2(O)C(=O)CO [Comparative Example 5, Hydrocortisone]
Relative mRNA expression level Ifnb1 [1]: 0.7 ± 0.2
Relative mRNA expression level Mx1 [2]: 0.6 ± 0.2
Relative mRNA expression level Mx2 [3]: 0.7 ± 0.3

C[C@]12C=CC(=O)C=C1CC[C@@H]1[C@@H]2[C@@H](O)C[C@@]2(C)[C@H]1CC[C@]2(O)C(=O)CO [Comparative Example 6, Prednisolone]
Relative mRNA expression level Ifnb1 [1]: 0.8 ± 0.2
Relative mRNA expression level Mx1 [2]: 0.8 ± 0.2
Relative mRNA expression level Mx2 [3]: 0.8 ± 0.3

C[C@]12C=CC(=O)C=C1CC[C@H]1[C@@H]3C[C@@H](O)[C@](O)(C(=O)CO)[C@@]3(C)C[C@H](O)[C@@]12F [Comparative Example 7, Triamcinolone]
Relative mRNA expression level Ifnb1 [1]: 0.7 ± 0.2
Relative mRNA expression level Mx1 [2]: 0.9 ± 0.2
Relative mRNA expression level Mx2 [3]: 0.7 ± 0.3
